Reference: patent US20040171015A1, “Cyp450-specific dna probes and primers, and biological applications thereof” (priority 2003, published 2004)

How the values were obtained:
[1] = system: CYP 14 sub-family; conditions: human hepatocytes, 48 hours exposure; PB 1 microM, RIF 50 microM
[2] = system: CYP450; conditions: known inducers used for validation; cited from earlier work

variation of CYP 14 sub-family (hybridization signal) [1]: no variation
Structure (SMILES): CO[C@H]1/C=C/O[C@@]2(C)Oc3c(C)c(O)c4c(O)c(c(/C=N/N5CCN(C)CC5)c(O)c4c3C2=O)NC(=O)/C(C)=C\C=C\[C@H](C)[C@H](O)[C@@H](C)[C@@H](O)[C@@H](C)[C@H](OC(C)=O)[C@@H]1C [rifampicine, Rifampicine]
CYP450 induced [2]: CYP 3A
